Data reported in PMC8927377.

Test system: N[C@@H](Cc1ccc(O)cc1)C(=O)O
Experiment: purified protein
Conditions: PBS pH 7.0, 1 uM PLP, oxidative (AAS) reaction to 4HPAA, also decarboxylated to tyramine

## PsTyDC6 (Papaver somniferum)
  Km: 580 µM
